Measured values from patent publication US10682316B2, “Methods for fabrication of epinephrine bitartrate nanoparticles and epinephrine bitartrate nanoparticles fabricated thereby” (NOVA SOUTHEASTERN UNIVERSITY, priority 2010, dated 2020).

Assay: Particle size measurement before and after size reduction (Mastersizer, NiComp 370, Zetasizer)
Assay type: physicochemical
Settings: epinephrine base first sample in water
Description: Nanoparticles were fabricated from epinephrine base and epinephrine bitartrate (Bit) using high energy fluidization (microfluidization) techniques. These techniques involve the use of oversaturated solutions of various solvents, particularly water and isopropanol, at various temperatures and pressures ranging from about 8,000 psi to 30,000 psi and to about 8.3° to 43.3° C. under various passes. Particle size was measured before and after size reduction using a Mastersizer (Malvern) and/or a NiComp 370 Submicron Particle Sizer (NiComp) and nano-sized particles were confirmed using laser diffraction techniques. The particles were lyophilized (freeze-dried) using a bench top lyophilizer (ART Inc.).

## CNC[C@H](O)c1ccc(O)c(O)c1 [Epinephrine Base, epinephrine]
  Size After Fabrication (110 F., 30 Kpsi) (nm): 273.9 nm
